Read-outs that look alike come from different tables or passages of the source.
System: MIA PaCa-2 tumor xenograft
Details: tail vein, days 1, 4, 8, 11, 15, 18

[PiperazAcAcid-(2-NH2-Phe)-L-A-(2-CF3-Bip)-PD-A-Chg-PFRPG]2-KGK-(Linker)-PTX [Targefrin-dimer-PTX]
antitumor effect (tumor volume) (dose equivalent to 2.5 mg/kg PTX (targefrin-PTX 10 mg/kg, targefrin-dimer-PTX 17 mg/kg)): significant antitumor effect compared to both the untreated group and the PTX-treated group | antitumor effect (tumor volume) (lower dose 10 mg/kg, equivalent to 1.5 mg/kg PTX): more effective than the PTX-treated group
